## Membrane permeability of cyclic peptides

Values of Townsend et al. 2020, doi:10.26434/chemrxiv.13335941.v1, as listed in CycPeptMPDB.

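The data file gives no further conditions (lipid, pH, time, direction or concentration), and values from different papers need not be comparable. The list need not hold all peptides of the study. Peptides that the database sets to -10, its floor, are left out.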

PAMPA is the parallel artificial membrane permeability assay, which has no cells and reads passive diffusion. Permeability is in 10^-6 cm/s, converted from the database's log10 values; higher is more permeable.

CC(C)C[C@@H]1C(=O)N(C)[C@@H](CC(C)C)C(=O)N2CCC[C@H]2C(=O)N(Cc2ccccc2)CC(=O)N[C@@H](Cc2ccccc2)C(=O)N2CCC[C@H]2C(=O)N[C@@H](C)C(=O)N1C is reported with PAMPA 1.8 × 10^-6 cm/s.
CC(C)C[C@H]1NC(=O)C[C@H](Cc2ccccc2)NC(=O)[C@H](Cc2ccccc2)NC(=O)[C@@H](CC(C)C)NC(=O)[C@@H]2CCCN2C(=O)[C@@H](CC(C)C)NC1=O is reported with PAMPA 1.5 × 10^-6 cm/s.
CC(C)C[C@H]1NC(=O)[C@H](C)NC(=O)[C@H](Cc2ccccc2)NC(=O)[C@H](CC(C)C)N(C)C(=O)[C@@H]2CCCN2C(=O)CN(Cc2ccccc2)C1=O is reported with PAMPA 1.7 × 10^-6 cm/s.
CC(C)C[C@@H]1NC(=O)[C@H](C)NC(=O)[C@H](Cc2ccccc2)NC(=O)[C@H](CC(C)C)N(C)C(=O)[C@@H]2CCCN2C(=O)[C@@H](CC(C)C)N(C)C1=O is reported with PAMPA 3.3 × 10^-6 cm/s.
CC(C)C[C@@H]1C(=O)N[C@@H](Cc2ccccc2)C(=O)N2CCC[C@H]2C(=O)N[C@@H](C)C(=O)N[C@H](CC(C)C)C(=O)N(Cc2ccccc2)CC(=O)N2CCC[C@H]2C(=O)N1C is reported with PAMPA 1.3 × 10^-6 cm/s.
CC(C)C[C@@H]1NC(=O)[C@@H](C)NC(=O)[C@H](Cc2ccccc2)NC(=O)[C@H](CC(C)C)N(C)C(=O)[C@H]2CCCN2C(=O)[C@@H](CC(C)C)N(C)C1=O is reported with PAMPA 3.4 × 10^-6 cm/s.
CC(C)C[C@@H]1NC(=O)[C@@H](C)NC(=O)[C@@H]2CCCN2C(=O)[C@H](Cc2ccccc2)NC(=O)CN(Cc2ccccc2)C(=O)[C@H]2CCCN2C(=O)[C@H](CC(C)C)N(C)C1=O is reported with PAMPA 0.5 × 10^-6 cm/s.
CC(C)C[C@@H]1C(=O)N[C@@H](Cc2ccccc2)C(=O)N2CCC[C@@H]2C(=O)N(C)[C@@H](C)C(=O)N(C)[C@@H](CC(C)C)C(=O)N[C@H](CC(C)C)C(=O)N2CCC[C@H]2C(=O)N1C is reported with PAMPA 1.9 × 10^-6 cm/s.
CC(C)C[C@H]1NC(=O)C[C@H](Cc2ccccc2)NC(=O)[C@H]2CCCN2C(=O)[C@H](Cc2ccccc2)NC(=O)CN(Cc2ccccc2)C(=O)[C@@H]2CCCN2C(=O)[C@@H](CC(C)C)NC1=O is reported with PAMPA 1.7 × 10^-6 cm/s.
CC(C)C[C@H]1NC(=O)[C@@H]2CCCN2C(=O)[C@@H](CC(C)C)NC(=O)[C@H](CC(C)C)N(C)C(=O)[C@@H](C)N(C)C(=O)[C@H](Cc2ccccc2)NC1=O is reported with PAMPA 2.8 × 10^-6 cm/s.
CC(C)C[C@@H]1C(=O)N(Cc2ccccc2)CC(=O)N2CCC[C@@H]2C(=O)N[C@H](CC(C)C)C(=O)N[C@@H](Cc2ccccc2)C(=O)N2CCC[C@H]2C(=O)N[C@@H](Cc2ccccc2)CC(=O)N1C is reported with PAMPA 1.5 × 10^-6 cm/s.
CC(C)C[C@@H]1NC(=O)[C@H](CC(C)C)N(C)C(=O)[C@@H](C)NC(=O)[C@H](Cc2ccccc2)NC(=O)CN(Cc2ccccc2)C(=O)[C@H]2CCCN2C1=O is reported with PAMPA 6.3 × 10^-6 cm/s.
CC(C)C[C@@H]1NC(=O)[C@@H](C)N(C)C(=O)[C@H](Cc2ccccc2)NC(=O)CN(Cc2ccccc2)C(=O)[C@@H]2CCCN2C(=O)[C@@H](CC(C)C)NC1=O is reported with PAMPA 1.1 × 10^-6 cm/s.
CC(C)C[C@H]1NC(=O)[C@@H](C)NC(=O)[C@H]2CCCN2C(=O)[C@H](Cc2ccccc2)NC(=O)CN(Cc2ccccc2)C(=O)[C@H]2CCCN2C(=O)[C@@H](CC(C)C)NC1=O is reported with PAMPA 0.33 × 10^-6 cm/s.
CC(C)C[C@@H]1C(=O)N2CCC[C@@H]2C(=O)N[C@H](CC(C)C)C(=O)N[C@@H](Cc2ccccc2)C(=O)N[C@@H](Cc2ccccc2)CC(=O)N[C@H](CC(C)C)C(=O)N1C is reported with PAMPA 7.6 × 10^-6 cm/s.
CC(C)C[C@@H]1C(=O)N[C@H](CC(C)C)C(=O)N2CCC[C@@H]2C(=O)N[C@H](CC(C)C)C(=O)N[C@@H](Cc2ccccc2)C(=O)N[C@@H](Cc2ccccc2)CC(=O)N1C is reported with PAMPA 1.2 × 10^-6 cm/s.
CC(C)C[C@H]1NC(=O)[C@@H]2CCCN2C(=O)C[C@H](Cc2ccccc2)NC(=O)[C@H](CC(C)C)N(C)C(=O)[C@H](C)N(C)C(=O)[C@H](Cc2ccccc2)NC1=O is reported with PAMPA 2 × 10^-6 cm/s.
CC(C)C[C@@H]1C(=O)N[C@@H](Cc2ccccc2)C(=O)N[C@H](C)C(=O)N[C@H](CC(C)C)C(=O)N(C)[C@@H](CC(C)C)C(=O)N2CCC[C@@H]2C(=O)N1C is reported with PAMPA 3.4 × 10^-6 cm/s.

Excerpt, the final 2 entries:

| compound | PAMPA (10^-6 cm/s) |
|---|---|
| CC(C)C[C@H]1NC(=O)[C@@H]2CCCN2C(=O)C[C@H](Cc2ccccc2)NC(=O)[C@H](CC(C)C)N(C)C(=O)[C@H](C)N(C)C(=O)[C@H](Cc2ccccc2)NC1=O | 2 |
| CC(C)C[C@@H]1C(=O)N[C@@H](Cc2ccccc2)C(=O)N[C@H](C)C(=O)N[C@H](CC(C)C)C(=O)N(C)[C@@H](CC(C)C)C(=O)N2CCC[C@@H]2C(=O)N1C | 3.4 |